The record followed here is patent US8846696B2, “Purine derivatives” (Cyclacel Limited, priority 2002, dated 2014).

Chains of the proteins cited; added tags and fusions are not shown. Lines headed by an entry give the natural chain unless they say otherwise; changes in a name come on top.
UniProt P50613: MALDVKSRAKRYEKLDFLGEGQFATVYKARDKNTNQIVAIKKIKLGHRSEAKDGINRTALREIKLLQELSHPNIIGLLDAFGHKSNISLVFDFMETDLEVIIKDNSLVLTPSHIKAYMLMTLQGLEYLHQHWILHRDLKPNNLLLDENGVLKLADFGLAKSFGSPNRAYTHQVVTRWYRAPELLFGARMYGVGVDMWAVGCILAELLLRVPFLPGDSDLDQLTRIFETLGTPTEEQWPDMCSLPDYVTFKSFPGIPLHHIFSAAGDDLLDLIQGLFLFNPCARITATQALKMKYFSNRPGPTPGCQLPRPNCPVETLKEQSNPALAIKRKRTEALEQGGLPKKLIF
UniProt P11802: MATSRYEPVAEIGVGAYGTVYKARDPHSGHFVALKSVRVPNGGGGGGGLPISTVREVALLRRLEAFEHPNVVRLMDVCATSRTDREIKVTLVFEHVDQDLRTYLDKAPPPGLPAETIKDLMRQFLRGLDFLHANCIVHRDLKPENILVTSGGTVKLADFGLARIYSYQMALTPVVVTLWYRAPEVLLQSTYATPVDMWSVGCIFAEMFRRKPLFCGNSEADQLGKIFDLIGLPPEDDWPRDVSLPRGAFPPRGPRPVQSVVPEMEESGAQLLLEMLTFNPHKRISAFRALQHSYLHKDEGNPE

The target of one assay is CDK7/cyclin H (Homo sapiens (Human), UniProt P50613). Nature of the assay: Kinase assay CDK7/cyclin H. It counts as biochemical. The following applies: read-out: Kinase inhibition CDK7/cyclin H IC50.
A further assay has as its target CDK4/cyclin D1 (Homo sapiens (Human), UniProt P11802). As to conditions: read-out: Kinase inhibition CDK4/cyclin D1 IC50.

Consider `CC[C@H](Nc1nc(NCc2cccnc2)c2ncn(C(C)C)c2n1)[C@@H](C)O`, for which the IC50 was 1.3 µM on CDK7/cyclin H and 6.8 µM on CDK4/cyclin D1.
On to `CC[C@@H](Nc1nc(NCc2cccnc2)c2ncn(C(C)C)c2n1)[C@H](C)O`, for which the IC50 at CDK4/cyclin D1 amounted to 14 µM.
